{"source": "patent US7531500B2", "about": "“Preventing airway mucus production by administration of EGF-R antagonists” (The Regents of the University of California, priority 1998, dated 2009)", "key": {"pathogen-free rats": {"tested_on": "pathogen-free rats", "assay": "Goblet cell production in pathogen-free rats after tracheal instillation of TNFα and EGF-R ligands", "type": "in vivo, rat", "details": "intratracheal instillation 200 ng", "description": "Healthy rats. Rats were anesthetized with methohexital sodium (Brevital sodium, 50 mg/kg, i.p.; Eli Lilly & Co., Indianapolis, Ind.) and allowed to breathe spontaneously. To determine whether TNFα up-regulates EGF-R in airways, TNFα (200 ng, 100 μl) was instilled into the trachea and the animals were euthanized 24 h later. To examine whether EGF or TGFα induces goblet cells in airway epithelium, EGF (600 ng, 100 μl) or TGFα (rat synthetic TGFα, 250 ng, 100 μl; Sigma, St Louis, Mich.) was instilled into the trachea either alone or 24 h after the instillation of TNFα (200 ng, 100 μl), and the animals were euthanized 48 h later. In each study, sterile PBS (100 μl) was instilled into the trachea as control. […]\nCell analysis. We counted the total number of epithelial cells by counting epithelial cell nuclei over 2 mm of the basal lamina with an oil immersion objective lens (×1000 magnification). The linear length of the basal lamina under each analyzed region of epithelium was determined by tracing the contour of the digitized image of the basal lamina. […]\nQuantification of goblet cell production. Goblet cell production, was determined by the volume density of Alcian blue/PAS-stained mucosubstances on the mucosal surface epithelium using a semi-automatic imaging system described elsewhere (Weber et al. (1984) Science 224:294-297). […]"}, "NCI-H292 cells": {"tested_on": "NCI-H292 cells", "assay": "Northern analysis of EGF-R in NCI-H292 cells", "type": "cell-based, human", "details": "TNFα 20 ng/ml; present at 12 h, increased at 24 h", "description": "Cell culture. A human pulmonary mucoepidermoid carcinoma cell line, NCI-H292 cells, were grown in RPMI11640 medium containing 10% fetal bovine serum, penicillin (100 U/ml), streptomycin (100 μg/ml) at 37° C. in a humidified 5% CO2 water-jacketed incubator. When confluent, cells were incubated with EGF (recombinant human EGF, 25 ng/ml, Genzyme, Cambridge, Mass.), TGFα (recombinant human TGFα, 25 ng/ml, Qenzyme), TNFα (recombinant human TNFα, 20 ng/ml, Genzyme), EGF (25 ng/ml) plus TNFα (20 ng/ml) or TGFα (25 ng/ml) plus TNFα (20 ng/ml) for 12 h, 24 h or 48 h. In inhibition studies with an EGF-R tyrosine kinase inhibitor, BIBX1522 (10 μg/ml, generously provided by Boehringer Ingelheim Inc., Ingelheim, Germany), cells were pretreated with BIBX1522 30 min before adding growth factors. After incubation, cells grown in a T-75 flask were used for total RNA extraction or protein extraction, and 8-chamber slides were used for Alcian blue/PAS-staining to visualize mucins.\nProbes. EGF-R mRNA expression was determined using the linearized pTRI-EGF-R-human probe template (Ambion, Austin, Tex.). This probe contains a 360 bp cDNA fragment of the human EGF-R gene, which spans exons 12-14. MUCG gene expression was determined using human MUC5AC probe, which contains a 298 bp cDNA fragment of human MUC5AC gene (generously provided by Dr. Carol Basbaum).\nNorthern blotting. […]"}}, "data": [{"substance": "TNFα: recombinant human tumor necrosis factor alpha (Genzyme)", "values": [{"measurement": "EGF-R protein in tracheal epithelium", "setting": "pathogen-free rats", "value": "induced EGF-R protein"}, {"measurement": "EGF-R gene expression", "setting": "NCI-H292 cells", "value": "up-regulated EGF-R gene expression"}]}]}
